{"source": "patent EP2945947B1", "about": "“INHIBITING THE TRANSIENT RECEPTOR POTENTIAL A1 ION CHANNEL” (Merck Sharp & Dohme Corp., priority 2013, dated 2014)", "system": "Female Sprague Dawley rats", "test": "Rodent acute tolerability test with liver function tests (Example 5)", "description": "Compounds of Formula (Ia) were assessed for acute tolerability in a rodent model at dose levels ranging from 100 - 200 mg/kg based upon the minimum efficacious dose of each compound. Female Sprague Dawley rats were administered up to a 10 mL/kg dose volume of each compound in 0.9% saline at appropriate concentrations as an intravenous bolus via the lateral tail vein. The animals were observed immediately post dose and for up to twenty four hours post dose and clinical observations were recorded. Additionally, approximately twenty four hours post dose animals were euthanized and blood taken for serum chemistry analysis with a focus on liver function tests (LFTs). The maximum tolerated single dose and LFT results are summarized in Table 3, where (↔) indicates blood levels of markers for potential liver damage within normal range and (↑) indicates blood levels of markers for potential liver damage elevated above normal range. Referring to the data in Table 3, LFT blood levels of markers for potential liver damage remained within normal range for the compounds of Formula (Ia), while LFTs were elevated for Comparator Compounds including 5-10 fold elevation above normal for ALT and AST blood levels observed upon administration of Comparative Compound 1. […]", "key": {"[1]": {"conditions": "single IV bolus dose 50 mg/kg, about 24 hours post dose"}}}
{"smiles": "C[C@H]1CCCN1c1ccc(-c2csc(NC(=O)Cn3cnc4c3c(=O)n(C)c(=O)n4C)n2)cc1F", "values": [{"measurement": "elevation above normal for ALT and AST blood levels", "setting": "after administration, about 24 hours", "result": "5-10 fold"}, {"measurement": "serum biomarkers of hepatotoxicity", "setting": "animal studies of Example 5", "result": "elevate the serum biomarkers of hepatotoxicity"}, {"measurement": "blood levels of ALT and AST, of the high end of the normal ranges", "setting": "intravenous bolus dose", "result": "170-1,311%"}, {"measurement": "Alterations in LFT", "setting": "[1]", "result": "↑"}, {"measurement": "LFT: % upper normal range ALT serum levels", "setting": "[1]", "result": 1000, "unit": "%"}, {"measurement": "LFT: % upper normal range AST serum levels", "setting": "[1]", "result": 514, "unit": "%"}]}
